Results as given in PubChem BioAssay AID602247 (The Scripps Research Institute Molecular Screening Center, 2012).
The list shows a part of the results, in another mix than the full data. Some salts and complexes are drawn in separate pieces, as the source files them; their charges need not balance. Calls of active or inactive are those of the source.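 Rule for the calls: active = activation above the run cutoff, the mean activation of all test compounds plus 3 SD (cut at about 40% in these data); inactive = the rest.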

Assay: nonselective calcium activators in parental CHO-K1 cells, primary screen, counter-screen for M1 PAM project, cell-based, Fluo-8 calcium fluorescence, full deck, 1536-well (AID 602247);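 note: peak over basal fluorescence ratio in a 140 s read after ATP addition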
Conditions: parental CHO-K1, ATP EC20, Fluo-8 calcium fluorescence; at 3 µM; hits give high values; 0% at ATP EC20, 100% at ATP max

| Compound | activation |
| --- | --- |
| CP(=O)(Nc1ccccn1)Oc1ccccc1 (stereo not given) | inactive: 3.38% |
| COc1ccccc1OP(C)(=O)Nc1ccc(C)cc1C (stereo not given) | inactive: 2.83% |
| O=[N+]([O-])c1cc([N+](=O)[O-])c(Nc2ccccn2)c([N+](=O)[O-])c1 | inactive: 5.85% |
| Cc1c(NP(C)(=O)Oc2ccc(C(C)C)cc2)c(=O)n(-c2ccccc2)n1C (stereo not given) | inactive: 5.06% |
| COc1ccc(OP(C)(=O)Nc2ccccc2Br)cc1 (stereo not given) | inactive: 22.6% |
| COc1ccccc1OP(C)(=O)Nc1ccc(C)c(C)c1 (stereo not given) | inactive: 1.23% |
| O=C1C(O)=C([N+](=O)[O-])C(=O)C(O)=C1[N+](=O)[O-] | inactive: 21.6% |
| Cc1cc(C)cc(OP(C)(=O)Nc2cccc(C(F)(F)F)c2)c1 (stereo not given) | inactive: 12.3% |
| CP(=O)(OCCOc1ccccc1)OCCOc1ccccc1 | inactive: 14.8% |
| CCCCCCCCCCCCCCCC1C[N+](C)(C)CCOP(C)(=O)O1 (stereo not given) | inactive: 19.8% |
| CP(=O)(Nc1ccc(Cl)cc1Cl)Oc1ccccc1 (stereo not given) | inactive: 11.1% |
| CP(=O)(OC12CC3CC(CC(C3)C1)C2)OC12CC3CC(CC(C3)C1)C2 | inactive: 11.8% |
| CCOC(=O)c1ccc(NP(C)(=O)Oc2ccc(Cl)cc2)cc1 (stereo not given) | inactive: 20.1% |
| CP(=O)(Oc1ccccc1)N1CCOC1=O (stereo not given) | inactive: 19.4% |
| CCc1ccc(OP(C)(=O)Nc2cccnc2)cc1 (stereo not given) | inactive: 5.68% |
| COc1ccccc1OP(C)(=O)Nc1c(C)n(C)n(-c2ccccc2)c1=O (stereo not given) | inactive: -6.33% |
| O=C(OCCCN1CCCC1)C(O)(c1ccccc1)C1CCCCC1 (stereo not given) | inactive: 16.3% |
| CCN(CC)CC(O)COC(=O)C(O)(c1ccccc1)C1CCCCC1 (stereo not given) | inactive: 0.24% |
| COc1ccc(OP(C)(=O)Nc2ccc(Br)cc2)cc1 (stereo not given) | inactive: 12.9% |
| CN(C)C(=O)c1c([N+](=O)[O-])cc([N+](=O)[O-])cc1[N+](=O)[O-] | inactive: 7.76% |
| CP(=O)(Nc1ccc(Cl)cc1)Oc1ccc(F)cc1 (stereo not given) | inactive: -4.55% |
| CC(C)(C)c1ccc(OP(C)(=O)O)cc1 | inactive: 15.2% |
| COc1ccccc1OP(C)(=O)Nc1ccccc1Br (stereo not given) | inactive: 9.54% |
| CCOP(C)(=S)SCC(=O)NC(C)(CC)C(=O)O (stereo not given) | inactive: 13.5% |
| CP(=O)(Nc1ccc(SC(F)(F)F)cc1)Oc1ccc(F)cc1 (stereo not given) | inactive: 7.89% |

| Compound | activation |
| --- | --- |
| O=[N+]([O-])c1cc([N+](=O)[O-])c(C(F)(F)F)c([N+](=O)[O-])c1O | inactive: -2.88% |
| Cc1ccccc1NP(C)(=O)Nc1ccccc1C | inactive: 13.6% |
| CP(=O)(Nc1ccc2c(c1)OCCO2)Oc1ccccc1 (stereo not given) | inactive: 12.7% |
| COc1ccc(NP(C)(=O)Oc2ccccc2OC)cc1 (stereo not given) | inactive: -3.81% |
| CN(C)CCOC(=O)C(O)(c1ccccc1)C1CCCCC1 (stereo not given) | inactive: 0.93% |
| CN(C)C1(CNC(=O)c2ccc(Cl)c(S(N)(=O)=O)c2)CCCCC1 | inactive: 13.7% |
| COc1ccc(OP(C)(=O)Nc2cccc(Br)c2)cc1 (stereo not given) | inactive: -8.94% |
| Cc1c(C(c2ccc3c(c2)OCO3)c2c(C)n(C)n(-c3ccccc3)c2=O)c(=O)n(-c2ccccc2)n1C.O=[N+]([O-])c1cc([N+](=O)[O-])c(O)c([N+](=O)[O-])c1 | inactive: 27.4% |
| O=[N+]([O-])c1cc([N+](=O)[O-])c(NCC2CCS(=O)(=O)C2)c([N+](=O)[O-])c1 (stereo not given) | inactive: 20% |
| Cc1cc(-c2cccc3ccccc23)c(C)cn1.O=[N+]([O-])c1cc([N+](=O)[O-])c(O)c([N+](=O)[O-])c1 | inactive: 2.14% |
| O=[N+]([O-])c1ccc(OP2(=O)COCCO2)cc1 (stereo not given) | inactive: 17.9% |
| COc1ccc(OP(C)(=O)Nc2ccc(SC(F)(F)F)cc2)cc1 (stereo not given) | inactive: 23.2% |
| CCOC(=O)c1ccc(NP(C)(=O)Oc2ccc(F)cc2)cc1 (stereo not given) | inactive: 4.4% |
| CCN(CC)CCCNc1ccccc1[N+](=O)[O-].O=[N+]([O-])c1cc([N+](=O)[O-])c(O)c([N+](=O)[O-])c1 | inactive: 15.1% |
| CCCCCOc1ccc(NP(C)(=O)Oc2ccc(Cl)cc2Cl)cc1 (stereo not given) | inactive: 27.2% |
| O=[N+]([O-])c1cc([N+](=O)[O-])c(OC2CCCCC2O)c([N+](=O)[O-])c1 (stereo not given) | inactive: 20.9% |
| CP(=O)(Nc1ccccc1)Oc1ccc(F)cc1 (stereo not given) | inactive: 12.6% |
| CCN(CC)CCCOC(=O)C(O)(c1ccccc1)C1CCCCC1 (stereo not given) | inactive: 13.4% |
| Cc1c([N+](=O)[O-])cc([N+](=O)[O-])c(Br)c1[N+](=O)[O-] | inactive: 14.2% |
| CC(C)c1ccc(OP(C)(=O)Nc2ccc(SC(F)(F)F)cc2)cc1 (stereo not given) | inactive: 20.3% |
| CP(=O)(Nc1ccccc1F)Oc1ccccc1 (stereo not given) | inactive: -1.63% |
| O=[N+]([O-])c1cc([N+](=O)[O-])c(Nc2ccc(Cl)cc2)c([N+](=O)[O-])c1 | inactive: 4.38% |
| COc1ccc2c(c1O)-c1c(O)c(OC)cc3c1[C@H](C2)[N+](C)(C)CC3.O=[N+]([O-])c1cc([N+](=O)[O-])c([O-])c([N+](=O)[O-])c1[O-] | inactive: -4.81% |
| O=C(OCCN1CCN(CCOCc2ccccc2)CC1)C(O)(c1ccccc1)c1ccccc1 | inactive: 11% |
| O=C(OC1CN2CCC1CC2)c1ccc([N+](=O)[O-])cc1 (stereo not given) | inactive: 19.9% |
